# Experimental data reported in PubChem BioAssay AID567 (The Scripps Research Institute Molecular Screening Center, 2006).
# Protein sequences, listed by entry. Tags and fused reporters are not part of them.
# UniProt P08908, whole entry: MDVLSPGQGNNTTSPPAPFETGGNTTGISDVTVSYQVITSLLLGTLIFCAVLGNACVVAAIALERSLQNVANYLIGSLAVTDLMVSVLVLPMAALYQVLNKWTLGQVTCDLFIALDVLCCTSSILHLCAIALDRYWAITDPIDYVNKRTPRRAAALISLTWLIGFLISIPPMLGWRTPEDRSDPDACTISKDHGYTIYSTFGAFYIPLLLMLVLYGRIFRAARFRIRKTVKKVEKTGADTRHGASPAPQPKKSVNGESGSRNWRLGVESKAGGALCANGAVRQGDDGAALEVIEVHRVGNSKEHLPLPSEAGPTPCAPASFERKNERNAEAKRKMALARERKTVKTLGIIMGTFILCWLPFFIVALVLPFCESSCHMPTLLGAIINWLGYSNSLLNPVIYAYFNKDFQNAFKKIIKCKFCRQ
# The list shows a part of the results, in another mix than the full data. Some of these compounds have results that are not shown, active ones among them. Active and inactive are the calls of the source.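 Rule for the calls: active = activation above the screen-wide mean activation plus 3 SD (cut at about 19% in these data); inactive = the rest.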
# Target: 5-hydroxytryptamine receptor 1A (Homo sapiens) (UniProt P08908)
# Assay: human 5-HT1a receptor agonists, primary screen, cell-based, CHO, Ga15 NFAT-bla reporter (AID 567);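 note: 0% = DMSO wells and 100% = 5-CT at EC100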
# Settings: CHO 5-HT1a Ga15 NFAT-bla reporter, FRET ratio; at 10 µM; hits give high values; 0% basal, 100% maximal reference agonist
row,SMILES,activation
1,O=C(OC1CN2CCC1CC2)C(CO)(c1ccccc1)c1ccccc1 (configuration not stated),inactive: -0.93%
2,CN(C)c1cccc(C(=O)NCC2(N(C)C)CCCCC2)c1,inactive: -0.9%
